# Reference: PubChem BioAssay AID1466 (National Center for Advancing Translational Sciences (NCATS), 2008)
# This is one part of the list. Records with an inconclusive call do not appear. Active and inactive are the calls of the source. The call rests on the fitted dose curve; in most records, active means well fitted inhibition curve with a large enough effect; inconclusive means small, poorly fitted or top-dose-only effect, or effect the other way, or another doubt; inactive means no such curve, though single readings can be large or run the other way.
# Molecular target: Lysosomal alpha-glucosidase (Homo sapiens) (UniProt P10253)
# Test: qHTS Assay for Inhibitors of Human alpha-Glucosidase as a Potential Chaperone Treatment of Pompe Disease;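 further: plate controls were uninhibited enzyme wells for no effect and no-enzyme background for full effect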
# Conditions: purified human GAA, 4-MU-alpha-glucoside fluorescence; at 76.9 µM (top of the series)
row,Structure (SMILES),"activity change, negative = inhibition"
1,CCN1CCC(Nc2cccc(F)c2)CC1,inactive: -5.67%
2,CN(C)c1ccc(C(=O)NCC2(N3CCCCC3)CCCCC2)cc1,inactive: -3.63%
3,CCOc1ncccc1C(=O)NCC1(N2CCOCC2)CCCCC1,inactive: 0.887%
4,CC(C)(C)OC(=O)N1CCC(Nc2ccccc2)CC1,inactive: -4.31%
5,COc1cc(OC)cc(C(=O)NCC2(N3CCOCC3)CCCCC2)c1,inactive: 6.89%
6,CCCOc1ccc(C)cc1CN(CCCl)CCCl,inactive: -10.3%
7,COc1ccc(C(=O)NCC2(N3CCOCC3)CCCCC2)cc1OC,inactive: -4.57%
8,N/C(=N\O)c1c(N)no[n+]1[O-],inactive: -2.49%
9,O=C(OC1CN2CCC1CC2)C1c2ccccc2C=Cc2ccccc21 (centres undefined),inactive: -1.95%
10,N#Cc1ccc(C(=O)NCC2(N3CCCCC3)CCCCC2)cc1,inactive: -0.631%
11,CCOC(=O)C(CC)C1=NC(C)(C)Cc2ccccc21.O=[N+]([O-])c1cc([N+](=O)[O-])c(O)c([N+](=O)[O-])c1 (centres undefined),inactive: -11%
12,c1ccc(CN2CCC(Nc3ccccc3)CC2)cc1,inactive: 2.49%
13,N#CC1(Nc2ccccc2)CCN(CCc2ccccc2)CC1,inactive: -0.0267%
14,O=C(NCC1(N2CCCCC2)CCCCC1)c1cccc([N+](=O)[O-])c1,inactive: -12.2%
15,O=[N+]([O-])c1cc([N+](=O)[O-])c(NCC2CCS(=O)(=O)C2)c([N+](=O)[O-])c1 (centres undefined),inactive: -4.89%
16,O=C(NCC1(N2CCOCC2)CCCCC1)c1cc(=O)[nH]c2ccccc12,inactive: -3.13%
17,CN1CCN(CCOC(=O)C(O)(c2ccccc2)c2ccccc2)CC1,inactive: -13.5%
18,COc1ccc(NC2CCN(C(=O)OC(C)(C)C)CC2)cc1,inactive: -7.16%
19,CC(C)c1ccc(NC2CCN(C(=O)OC(C)(C)C)CC2)cc1,inactive: -4.3%
20,COc1ccc(CN(CCCl)CCCl)cc1Cl,inactive: 11.2%
21,CN(C)c1cccc(C(=O)NCC2(N3CCCCC3)CCCCC2)c1,inactive: -6.04%
22,O=C(OC1CN2CCC1CC2)c1ccc([N+](=O)[O-])cc1 (centres undefined),inactive: -4.53%
23,COc1ccc(C(=O)NCC2(N3CCCCC3)CCCCC2)c(OC)c1OC,inactive: -6.8%
24,O=C(NCC1(N2CCOCC2)CCCCC1)c1cc2ccccc2o1,inactive: 0.503%
25,O=C(OC1CN2CCC1CC2)C1c2ccccc2Oc2ccccc21 (centres undefined),inactive: -0.735%
26,CCOC(=O)N1CCC(Nc2ccc(OC)cc2)CC1,inactive: -23.6%
27,CCOc1ccc(C)cc1CN(CCCl)CCCl,inactive: -12.9%
28,COc1ccc(NC2CCN(CCc3ccccc3)CC2)c(OC)c1,inactive: 0.143%
29,Cc1ccc(OCC(C)C)c(CN(CCCl)CCCl)c1,inactive: -5.23%
